The assay deals with T1, Salmonella typhimurium ArnB (Salmonella typhimurium, UniProt Q8ZNF3).
T1 construct: GlySer-His6 (GlySerHisHisHisHisHisHis) (C); made in house; host or cells: E. coli BL21 (DE3), vector pSB3 (modified pET26b)
Nature of the assay: ArnB aminotransfer half-reaction assay (absorbance of PMP/PLP cofactor forms at 340 nm / 430 nm). As to conditions: addition of α-ketoglutarate; 340 nm peak reduced, 430 nm increased. Format: biochemical. The protocol: Aminotransfer half-reactions were measured at an enzyme concentration of 23 μM and substrates were added to a final concentration of 250 μM, unless otherwise indicated. Reaction progress was followed by moniotoring the absorbance maxima of the PMP or PLP cofactor forms at 340 nm or 430 nm, respectively. Resulting time courses were fit to eq. 1, describing a single-exponential decay,
Yobs=((Y0−Y∞)e^−kt)+Y∞ (Eq. 1),
where Yobs=observed signal, Y0=signal at time zero, Y∞=signal at infinite time, k is the apparent first-order rate constant, and t is time. Nonlinear least-squares fits were performed with Kaleidagraph v3.51 (Synergy Software, Reading, Pa.).

By UniProt entry, the sequences of proteins in these tests, tags left out. Where a name states a change or a piece, a line headed by the entry shows the natural chain unless it says otherwise.
UniProt Q8ZNF3: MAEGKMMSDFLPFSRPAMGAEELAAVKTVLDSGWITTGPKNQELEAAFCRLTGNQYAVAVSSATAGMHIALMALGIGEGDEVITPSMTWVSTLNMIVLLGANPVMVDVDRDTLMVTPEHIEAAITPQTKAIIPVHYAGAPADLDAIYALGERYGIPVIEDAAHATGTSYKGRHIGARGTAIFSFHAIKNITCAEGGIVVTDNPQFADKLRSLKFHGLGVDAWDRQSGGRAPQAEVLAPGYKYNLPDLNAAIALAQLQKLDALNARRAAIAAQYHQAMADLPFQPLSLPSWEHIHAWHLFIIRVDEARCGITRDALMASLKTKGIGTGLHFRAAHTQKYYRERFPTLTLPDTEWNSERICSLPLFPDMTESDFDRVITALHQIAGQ

Take α-ketoglutarate: the “conversion of E•PMP ArnB to the internal aldimine (E-PLP) form” value is on record as “consistent with conversion to the internal aldimine or E-PLP form”.
